Yeast mating assay 1: variants of the scFv Ab-14

The measurements come from Engelhart et al. 2022 (doi:10.1038/s41597-022-01779-4) through the FLAb antibody collection.

The target is the same throughout: PDVDLGDISGINAS, from the HR2 region of SARS-CoV-2 spike.

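The parent was found by panning a naive human phage display library on the peptide. Library AAYL50 holds single substitutions and randomly drawn double and triple substitutions in the CDRs. In AlphaSeq, yeast of one mating type display the scFv and yeast of the other type display the target. After mating in shaken culture at 30 °C for 16 h, diploids were selected and their barcode pairs sequenced. The ratio of observed to expected reads was calibrated, replicate by replicate, on BCL2-family standards whose Kd was known from biolayer interferometry. The assay was run in three technical replicates.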

Parent scFv Ab-14: VH joined to VL by a 15-residue (Gly4Ser)3 linker. Changes lie in the light chain CDRs alone.
VH: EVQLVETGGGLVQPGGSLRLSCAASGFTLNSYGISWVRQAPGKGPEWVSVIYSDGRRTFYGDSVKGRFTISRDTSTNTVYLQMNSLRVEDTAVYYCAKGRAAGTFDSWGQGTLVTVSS
VL: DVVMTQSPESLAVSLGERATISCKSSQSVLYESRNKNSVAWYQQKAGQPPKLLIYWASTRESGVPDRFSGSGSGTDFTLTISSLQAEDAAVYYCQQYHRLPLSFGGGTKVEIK

Each variant's VL is given in full.
Each Kd is an estimate from the mating assay, the geometric mean of the replicates in which the pair was seen; lower is stronger.
"nd" marks a missing value. The strain was present, yet no cells mated with the target were sequenced in any replicate, which points to weak or no binding.
Entries are sorted by rising average, undetected variants last.
Background: pairings of library AAYL50 with three empty control strains gave a value in 18% of cases (median 15 µM, 5th percentile 970 nM). Values in that range, when seen in few replicates, are hard to tell from nonspecific mating. The control count says in how many pairings with the empty strains this scFv gave a signal.

| VL | apparent Kd | detected | empty controls |
|---|---|---|---|
| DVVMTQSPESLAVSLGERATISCKSSQSVYYESENKNSVAWYQQKAGQPPKLLIYWASTRLSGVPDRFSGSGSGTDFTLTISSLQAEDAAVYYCQQYHRLPLSFGGGTKVEIK | 1.1 nM | 3/3 | 0/9 |
| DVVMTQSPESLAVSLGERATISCKSSQSVLYESRNKNSVAWYQQKAGQPPKLLIYWASTREEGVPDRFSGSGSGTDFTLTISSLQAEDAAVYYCQQYHTLPLDFGGGTKVEIK | 2.9 nM | 3/3 | 3/9 |
| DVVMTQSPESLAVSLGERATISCKSSQSNLYGSRNKNSVAWYQQKAGQPPKLLIYWASTRENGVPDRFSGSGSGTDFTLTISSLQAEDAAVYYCQQYHRLPLSFGGGTKVEIK | 4.6 nM | 3/3 | 0/9 |
| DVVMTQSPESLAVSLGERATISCKTHQSVLYESRNKNSVAWYQQKAGQPPKLLIYWASTRASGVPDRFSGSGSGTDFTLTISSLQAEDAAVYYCQQYHRLPLSFGGGTKVEIK | 4.7 nM | 3/3 | 3/9 |
| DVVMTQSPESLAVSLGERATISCKSSESELYESRNKNSVAWYQQKAGQPPKLLIYWASTRESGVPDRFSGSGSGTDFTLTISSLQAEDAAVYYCQQYARLPLSFGGGTKVEIK | 5.8 nM | 3/3 | 0/9 |
| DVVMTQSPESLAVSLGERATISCKSSQSVFYEGRNKNSVAWYQQKAGQPPKLLIYWASTRESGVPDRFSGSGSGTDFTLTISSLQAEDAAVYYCQQYHRIPLSFGGGTKVEIK | 18 nM | 3/3 | 1/9 |
| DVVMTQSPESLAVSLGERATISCKSSQQVLYESRNKNSEAWYQQKAGQPPKLLIYWASTKESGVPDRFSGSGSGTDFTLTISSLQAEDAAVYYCQQYHRLPLSFGGGTKVEIK | 19 nM | 3/3 | 0/9 |
| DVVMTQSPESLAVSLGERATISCKSSQSVLCESRNVNSVAWYQQKAGQPPKLLIYWASTRESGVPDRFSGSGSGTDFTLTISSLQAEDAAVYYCCQYHRLPLSFGGGTKVEIK | 88 nM | 3/3 | 1/9 |
| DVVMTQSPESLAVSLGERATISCKSSQNVLYESRNKNSVAWYQQKAGQPPKLLIYWASHREWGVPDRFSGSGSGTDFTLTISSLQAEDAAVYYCQQYHRLPLSFGGGTKVEIK | 130 nM | 3/3 | 4/9 |
| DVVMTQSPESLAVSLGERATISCKRSQSVLYESMNKNSVAWYQQKAGQPPKLLIYWASTRESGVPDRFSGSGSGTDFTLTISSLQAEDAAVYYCQQYHNLPLSFGGGTKVEIK | 350 nM | 3/3 | 0/9 |
| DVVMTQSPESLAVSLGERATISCKSGQSVLYESRNKNSVAWYQQKAGQPPKLLIYWASTRESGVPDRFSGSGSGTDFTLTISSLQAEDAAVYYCQQYCRLPLVFGGGTKVEIK | 460 nM | 3/3 | 2/9 |
| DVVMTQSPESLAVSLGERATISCKSSQSSLYESRNKNSVAWYQQKAGQPPKLLIYWASTRESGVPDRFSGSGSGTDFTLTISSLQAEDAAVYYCQQYHRLVLVFGGGTKVEIK | 2.8 µM | 2/3 | 1/9 |
| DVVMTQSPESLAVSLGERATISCKSSQSVLYESRNKNRVAWYQQKAGQPPKLLIYCASTRGSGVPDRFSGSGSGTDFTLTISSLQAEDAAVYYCQQYHRLPLSFGGGTKVEIK | 4.6 µM | 2/3 | 0/9 |
| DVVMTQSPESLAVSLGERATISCKSSQSVLYESRNKISVAWYQQKAGQPPKLLIYPASTRESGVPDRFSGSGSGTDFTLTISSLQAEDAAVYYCQQYERLPLSFGGGTKVEIK | 6.2 µM | 1/3 | 3/9 |
| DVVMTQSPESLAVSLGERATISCKSSQSVLYESRNKNSVLWYQQKAGQPPKLLIYWASTTESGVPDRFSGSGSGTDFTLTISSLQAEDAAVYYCQQYHRNPLSFGGGTKVEIK | 8.5 µM | 1/3 | 1/9 |
| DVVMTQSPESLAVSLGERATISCDSSQSVLYESRTKNSVAWYQQKAGQPPKLLIYWASTRESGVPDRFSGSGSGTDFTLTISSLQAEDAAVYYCIQYHRLPLSFGGGTKVEIK | 69 µM | 2/3 | 1/9 |
| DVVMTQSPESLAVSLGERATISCKSSQSVLHFSRNKNSVAWYQQKAGQPPKLLIYWASTRESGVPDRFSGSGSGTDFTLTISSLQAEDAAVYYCGQYHRLPLSFGGGTKVEIK | nd | 0/3 | 2/9 |
| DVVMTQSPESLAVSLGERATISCKSSQSVIYESRNKPSDAWYQQKAGQPPKLLIYWASTRESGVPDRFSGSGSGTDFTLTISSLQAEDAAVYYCQQYHRLPLSFGGGTKVEIK | nd | 0/3 | 2/9 |
| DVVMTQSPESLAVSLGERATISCKSSQSVQYESRNKNSVAWYQQKAGQPPKLLIYWASTRESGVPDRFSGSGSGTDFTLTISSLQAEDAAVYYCQHYHRWPLSFGGGTKVEIK | nd | 0/3 | 0/9 |
| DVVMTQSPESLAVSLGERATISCKSSLSELYESRNKNSVWWYQQKAGQPPKLLIYWASTRESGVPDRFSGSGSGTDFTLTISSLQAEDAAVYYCQQYHRLPLSFGGGTKVEIK | nd | 0/3 | 0/9 |
| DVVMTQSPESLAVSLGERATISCKSSYSVLYESRNKDSVAWYQQKAGQPPKLLIYWASTRESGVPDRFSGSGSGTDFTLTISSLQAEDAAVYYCQQYHRLPLNFGGGTKVEIK | nd | 0/3 | 0/9 |
| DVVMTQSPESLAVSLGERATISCKSSQSVLYESRNKNSVAWYQQKAGQPPKLLIYWAYTRVSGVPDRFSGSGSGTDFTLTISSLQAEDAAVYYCQQYHRQPLSFGGGTKVEIK | nd | 0/3 | 0/9 |
| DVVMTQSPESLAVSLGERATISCKSEQSVAYESRNKNSVAWYQQKAGQPPKLLIYWASTDESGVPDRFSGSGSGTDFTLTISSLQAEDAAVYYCQQYHRLPLSFGGGTKVEIK | nd | 0/3 | 0/9 |
| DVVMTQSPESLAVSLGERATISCKSSQWVLYESRNKNSVAWYQQKAGQPPKLLIYWNSTRRSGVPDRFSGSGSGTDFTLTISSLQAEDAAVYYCQQYHRLPLSFGGGTKVEIK | nd | 0/3 | 1/9 |
| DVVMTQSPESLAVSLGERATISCWSSQSVLYVSRNKNSVAWYQQKAGQPPKLLIYWASTRESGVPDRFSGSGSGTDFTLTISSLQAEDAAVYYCQQYHRLPLSFGGGTKVEIK | nd | 0/3 | 1/9 |
| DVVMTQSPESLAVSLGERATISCPSSQSVLYESRNKNSVDWYQQKAGQPPKLLIYWAWTRESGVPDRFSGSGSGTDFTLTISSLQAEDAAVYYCQQYHRLPLSFGGGTKVEIK | nd | 0/3 | 0/9 |

The 2 strongest on average among those seen in every replicate, once more:

| VL | apparent Kd | detected | empty controls |
|---|---|---|---|
| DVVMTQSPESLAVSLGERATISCKSSQSVYYESENKNSVAWYQQKAGQPPKLLIYWASTRLSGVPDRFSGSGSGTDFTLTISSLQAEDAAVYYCQQYHRLPLSFGGGTKVEIK | 1.1 nM | 3/3 | 0/9 |
| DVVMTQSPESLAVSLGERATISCKSSQSVLYESRNKNSVAWYQQKAGQPPKLLIYWASTREEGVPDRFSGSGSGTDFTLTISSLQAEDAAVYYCQQYHTLPLDFGGGTKVEIK | 2.9 nM | 3/3 | 3/9 |